This is an account of results in US20080194482A1, “Selective Apac2 Receptor Peptide Agonists” (priority 2005, published 2008).

Protein sequences, listed by entry. Tags and fused reporters are not part of them. Residues count along the entry.
UniProt P32241, 31-457: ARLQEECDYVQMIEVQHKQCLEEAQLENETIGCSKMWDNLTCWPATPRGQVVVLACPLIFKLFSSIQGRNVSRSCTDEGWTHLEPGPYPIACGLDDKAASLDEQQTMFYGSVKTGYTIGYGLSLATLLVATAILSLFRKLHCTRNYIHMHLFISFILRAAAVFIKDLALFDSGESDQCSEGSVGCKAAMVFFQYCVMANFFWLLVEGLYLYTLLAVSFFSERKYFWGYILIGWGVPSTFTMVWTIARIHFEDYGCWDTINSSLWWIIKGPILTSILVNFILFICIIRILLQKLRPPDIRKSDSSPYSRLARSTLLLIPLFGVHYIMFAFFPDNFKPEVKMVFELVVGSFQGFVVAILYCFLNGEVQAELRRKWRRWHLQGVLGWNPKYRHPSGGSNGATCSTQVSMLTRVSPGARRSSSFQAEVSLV

Usually EC50 stands for the concentration needed to bring the measured effect to its halfway point. A low value points to higher potency in that assay. Usually IC50 stands for the midpoint of a concentration-inhibition curve.

Data set [1] deals with T1, rat VPAC2 receptor (Rattus norvegicus, UniProt P35000).
T1 construct: expressed in transfected cells; host or cells: CHO-PO (transient, Lipofectamine)
T1 sequence (P35000 23-437): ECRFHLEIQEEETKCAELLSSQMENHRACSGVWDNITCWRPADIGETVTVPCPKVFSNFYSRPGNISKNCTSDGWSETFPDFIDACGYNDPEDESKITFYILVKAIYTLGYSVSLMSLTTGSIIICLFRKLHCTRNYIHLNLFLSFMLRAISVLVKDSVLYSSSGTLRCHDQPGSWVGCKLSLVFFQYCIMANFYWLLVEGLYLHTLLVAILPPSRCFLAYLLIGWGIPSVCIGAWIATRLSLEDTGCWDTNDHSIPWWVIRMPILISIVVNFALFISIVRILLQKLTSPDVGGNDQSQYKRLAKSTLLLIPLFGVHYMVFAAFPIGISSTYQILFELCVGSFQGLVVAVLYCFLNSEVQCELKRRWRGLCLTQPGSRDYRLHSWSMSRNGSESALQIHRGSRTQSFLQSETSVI
The experiment in a line: DiscoveRx cAMP assay, in vitro potency at rat VPAC2 receptor. Type of data set: cell-based. The method, then: DiscoveRx: CHO-PO cells are transiently transfected with rat VPAC1 or VPAC2 receptor DNA using commercially available transfection reagents (Lipofectamine from Invitrogen). The cells are seeded at a density of 10,000/well in a 96-well plate and are allowed to grow for 3 days in […] culture medium. At day 3, the assay is performed.
On the day of the experiment, the medium is removed. Also, the cells are washed twice. The cells are incubated in assay buffer plus IBMX for 15 minutes at room temperature. Afterwards, the stimuli are added and are dissolved in assay buffer. The stimuli are present for 30 minutes. Then, the assay buffer is gently removed. The cell lysis reagent of the DiscoveRx cAMP kit is added. Thereafter, the standard protocol for developing the cAMP signal as described by the manufacturer is used (DiscoveRx Inc., USA). EC50 values for cAMP generation are calculated from the raw signal or are based on absolute cAMP levels as determined by a standard curve performed on each plate.
Results for each agonist are the mean of two independent runs. Rat VPAC1 and VPAC2 results are only generated using the DiscoveRx assay.
(In general: cAMP levels reflect the balance of adenylyl cyclase and phosphodiesterase activity.)

Data set [2] has as its target T2, human VPAC1 (Homo sapiens, UniProt P32241).
T2 construct: expressed in transfected cells
Nature of the data set: Filter binding assay, 125I-labeled VIP tracer, VPAC1 membranes.

Data set [3] in a line: Rat serum stability (activity remaining, CHO-VPAC2 DiscoveRx read-out). As to conditions: 10 μM peptide in rat serum, overnight at 37° C. vs 4° C. with aprotinin; estimated by EC50, 4C/EC50, 37C. It is filed as in vitro ADME. The method, then:
The rat serum is stored at 4° C. until use and is used within two weeks. […] The aliquot is stored with aprotinin at 4° C. The aliquot is stored without aprotinin at 37° C. The aliquots are incubated overnight. […] The plate(s) are washed with cells twice in incubation buffer. The plates are allowed to hold 50 μL incubation media per well for 15 minutes. 50 μL solution per well is transferred to the cells from the plate prepared with 11 serial 5× dilutions of peptide for the 4° C. and 37° C. aliquot for each peptide studied, using the maximal concentrations that are indicated by the primary screen, in duplicate. This step dilutes the peptide concentration by a factor of two. The cells are incubated at room temperature for 30 minutes. […] The cells are incubated on the shaker (300 rpm) for 1 hour. Normal procedure with the DiscoveRx kit is followed. cAMP standards are included in column 12. EC50 values are determined from the cAMP assay data.

In data set [4] the target is T3, human PAC1 (Homo sapiens, UniProt P41586).
T3 construct: expressed in transfected cells
T3 sequence (P41586 21-468): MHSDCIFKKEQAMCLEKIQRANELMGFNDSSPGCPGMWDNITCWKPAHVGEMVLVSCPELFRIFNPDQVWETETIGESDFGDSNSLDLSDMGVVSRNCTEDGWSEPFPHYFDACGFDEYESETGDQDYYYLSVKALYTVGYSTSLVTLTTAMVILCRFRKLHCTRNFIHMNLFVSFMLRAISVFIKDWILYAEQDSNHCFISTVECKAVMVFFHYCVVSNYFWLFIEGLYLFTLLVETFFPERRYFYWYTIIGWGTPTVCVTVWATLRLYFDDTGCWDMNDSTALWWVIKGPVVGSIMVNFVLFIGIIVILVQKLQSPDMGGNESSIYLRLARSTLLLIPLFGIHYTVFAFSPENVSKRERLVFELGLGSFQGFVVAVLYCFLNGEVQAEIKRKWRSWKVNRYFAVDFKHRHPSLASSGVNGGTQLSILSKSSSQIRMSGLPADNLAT
Nature of the data set: Filter binding assay, 125I-labeled PACAP-27 tracer, PAC1 membranes.

For data set [5], the target named is T4, human VPAC2 (Homo sapiens, UniProt P41587).
T4 construct: expressed in transfected cells
T4 sequence (P41587 24-438): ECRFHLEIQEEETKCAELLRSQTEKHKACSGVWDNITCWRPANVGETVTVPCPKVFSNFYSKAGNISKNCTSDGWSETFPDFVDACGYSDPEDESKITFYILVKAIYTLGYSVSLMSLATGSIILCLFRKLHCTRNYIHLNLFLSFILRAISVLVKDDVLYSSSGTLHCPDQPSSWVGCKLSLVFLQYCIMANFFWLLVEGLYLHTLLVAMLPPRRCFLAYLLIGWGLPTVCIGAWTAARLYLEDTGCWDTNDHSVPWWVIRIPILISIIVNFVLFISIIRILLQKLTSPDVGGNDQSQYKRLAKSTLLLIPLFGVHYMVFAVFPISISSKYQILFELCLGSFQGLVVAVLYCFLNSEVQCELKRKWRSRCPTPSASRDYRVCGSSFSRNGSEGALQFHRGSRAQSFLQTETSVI
Nature of the data set: Alpha screen cAMP assay, in vitro potency at human VPAC2 receptor. Type of data set: cell-based.

As to `CCCCCC(=O)N[C@@H](Cc1c[nH]cn1)C(=O)N[C@@H](CO)C(=O)N[C@@H](CC(=O)O)C(=O)N[C@@H](C)C(=O)N[C@H](C(=O)N[C@@H](Cc1ccccc1)C(=O)N[C@H](C(=O)N[C@@H](CC(=O)O)C(=O)N[C@@H](CCC(N)=O)C(=O)N[C@@H](Cc1ccc(O)cc1)C(=O)N[C@H](C(=O)N[C@@H](CCCNC(=N)N)C(=O)NC(C)(C)C(=O)N[C@@H](CCCNC(=N)N)C(=O)NC(C)(C)C(=O)N[C@@H](CCC(N)=O)C(=O)N[C@H](C(=O)N[C@@H](C)C(=O)N[C@@H](C)C(=O)NC(C)(C)C(=O)N[C@@H](CCCCN)C(=O)N[C@@H](Cc1ccc(O)cc1)C(=O)N[C@@H](CC(C)C)C(=O)N[C@@H](CCC(N)=O)C(=O)N[C@@H](CO)C(=O)N[C@H](C(=O)N[C@@H](CCCCN)C(=O)NC(C)(C)C(=O)N[C@@H](CCCCN)C(=O)NCC(=O)NCC(=O)N1CCC[C@H]1C(=O)N[C@@H](CO)C(=O)N[C@@H](CO)C(=O)NCC(=O)N[C@@H](C)C(=O)N1CCC[C@H]1C(=O)N1CCC[C@H]1C(=O)N1CCC[C@H]1C(=O)N[C@@H](CO)C(=O)O)[C@@H](C)CC)C(C)C)[C@@H](C)O)[C@@H](C)O)C(C)C` [Agonist P406], the figures for the EC50 in data set [1] and in data set [5] were 0.04 nM and 0.12 nM, respectively. Moreover, the IC50 was more than 3000 nM in data set [2] and more than 25000 nM in data set [4]. Moreover, in data set [3], the “Rat Serum Stability (estimated purity in % after overnight incub.)” value is listed as 89.83%.

As for `CCCCCC(=O)N[C@@H](Cc1c[nH]cn1)C(=O)N[C@@H](CO)C(=O)N[C@@H](CC(=O)O)C(=O)N[C@@H](C)C(=O)N[C@H](C(=O)N[C@@H](Cc1ccccc1)C(=O)N[C@H](C(=O)N[C@@H](CC(=O)O)C(=O)N[C@@H](CC(N)=O)C(=O)N[C@@H](Cc1ccc(O)cc1)C(=O)N[C@H](C(=O)N[C@@H](CCCNC(=N)N)C(=O)NC(C)(C)C(=O)N[C@@H](CCCNC(=N)N)C(=O)NC(C)(C)C(=O)N[C@@H](CCC(N)=O)C(=O)N[C@H](C(=O)N[C@@H](C)C(=O)N[C@@H](C)C(=O)NC(C)(C)C(=O)N[C@@H](CCCCN)C(=O)N[C@@H](Cc1ccc(O)cc1)C(=O)N[C@@H](CC(C)C)C(=O)N[C@@H](CCC(N)=O)C(=O)N[C@@H](CO)C(=O)N[C@H](C(=O)N[C@@H](CCCCN)C(=O)NC(C)(C)C(=O)N[C@@H](CCCCN)C(=O)NCC(=O)NCC(=O)N1CCC[C@H]1C(=O)N[C@@H](CO)C(=O)N[C@@H](CO)C(=O)NCC(=O)N[C@@H](C)C(=O)N1CCC[C@H]1C(=O)N1CCC[C@H]1C(=O)N1CCC[C@H]1C(=O)N[C@@H](CO)C(=O)O)[C@@H](C)CC)C(C)C)[C@@H](C)O)[C@@H](C)O)C(C)C` [Agonist P405], the EC50 in data set [1] stood at 0.04 nM. Moreover, the values for the IC50 in data set [2] and in data set [4] were more than 3000 nM and more than 25000 nM, respectively. The “Rat Serum Stability (estimated purity in % after overnight incub.)” value in data set [3] is reported as 79.54%.

For the compound `CCCCCC(=O)N[C@@H](Cc1c[nH]cn1)C(=O)N[C@@H](CO)C(=O)N[C@@H](CCC(=O)O)C(=O)N[C@@H](C)C(=O)N[C@H](C(=O)N[C@@H](Cc1ccccc1)C(=O)N[C@H](C(=O)N[C@@H](CCC(=O)O)C(=O)N[C@@H](CCC(N)=O)C(=O)N[C@@H](Cc1ccc(OC)cc1)C(=O)N[C@H](C(=O)N[C@@H](CCCNC(=N)N)C(=O)NC(C)(C)C(=O)N[C@@H](CCCNC(=N)N)C(=O)NC(C)(C)C(=O)N[C@@H](CCC(N)=O)C(=O)N[C@@H](CC(C)C)C(=O)N[C@@H](C)C(=O)N[C@@H](C)C(=O)NC(C)(C)C(=O)N[C@@H](CCCCN)C(=O)N[C@@H](Cc1ccc(O)cc1)C(=O)N[C@@H](CC(C)C)C(=O)N[C@@H](CCC(N)=O)C(=O)N[C@@H](CO)C(=O)N[C@H](C(=O)N[C@@H](CCCCN)C(=O)NC(C)(C)C(=O)N[C@@H](CCCCN)C(=O)NCC(=O)NCC(=O)N1CCC[C@H]1C(=O)N[C@@H](CO)C(=O)N[C@@H](CO)C(=O)NCC(=O)N[C@@H](C)C(=O)N1CCC[C@H]1C(=O)N1CCC[C@H]1C(=O)N1CCC[C@H]1C(=O)N[C@@H](CO)C(=O)O)[C@@H](C)CC)[C@@H](C)O)[C@@H](C)O)C(C)C` [Agonist P409], the IC50 is more than 3000 nM in data set [2] and more than 25000 nM in data set [4]. For the same compound, in data set [5], the EC50 was found to be 0.19 nM.

In the case of `CCCCCC(=O)N[C@@H](Cc1c[nH]cn1)C(=O)N[C@@H](CO)C(=O)N[C@@H](CC(=O)O)C(=O)N[C@@H](C)C(=O)N[C@H](C(=O)N[C@@H](Cc1ccccc1)C(=O)N[C@H](C(=O)N[C@@H](CC(=O)O)C(=O)N[C@@H](CCC(N)=O)C(=O)N[C@@H](Cc1ccc(O)cc1)C(=O)N[C@H](C(=O)N[C@@H](CCCNC(=N)N)C(=O)NC(C)(C)C(=O)N[C@@H](CCCNC(=N)N)C(=O)NC(C)(C)C(=O)N[C@@H](CCC(N)=O)C(=O)N[C@@H](CC(C)C)C(=O)N[C@@H](C)C(=O)N[C@@H](C)C(=O)NC(C)(C)C(=O)N[C@@H](CCCCN)C(=O)N[C@@H](Cc1ccc(O)cc1)C(=O)N[C@@H](CC(C)C)C(=O)N[C@@H](CCC(N)=O)C(=O)N[C@@H](CO)C(=O)N[C@H](C(=O)N[C@@H](CCCCN)C(=O)NC(C)(C)C(=O)N[C@@H](CCCCN)C(=O)NCC(=O)NCC(=O)N1CCC[C@H]1C(=O)N[C@@H](CO)C(=O)N[C@@H](CO)C(=O)NCC(=O)N[C@@H](C)C(=O)N1CCC[C@H]1C(=O)N1CCC[C@H]1C(=O)N1CCC[C@H]1C(=O)N[C@@H](CO)C(=O)O)[C@@H](C)CC)[C@@H](C)O)[C@@H](C)O)C(C)C` [Agonist P407], the figures for the EC50 in data set [1] and in data set [5] were 0.03 nM and 0.12 nM, respectively. Further, the “Rat Serum Stability (estimated purity in % after overnight incub.)” value in data set [3] is on record as 151.54%.
